# Ab-14 light chain CDR variants: yeast mating affinities

Reference: Li et al. 2023, doi:10.1038/s41467-023-39022-2. File: FLAb, binding data.

Antigen: PDVDLGDISGINAS, a 14-residue peptide of the SARS-CoV-2 spike HR2 region.

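Phage display of a naive human antibody library on the peptide gave the parent. The variants were designed computationally from a first round of random CDR variants and then made and measured. Group labels follow the data file (Ctrl: baseline library sampled from a position-specific scoring matrix, with some repeated check sequences; En: ensemble of fine-tuned language models; GP: Gaussian process model; HC: hill climbing; Gen: genetic algorithm; Gibbs: Gibbs sampling; a sequence that several methods proposed may carry one label only). Affinity was read by AlphaSeq, a pooled yeast mating assay with surface-displayed partners. The frequency of each diploid, read from paired DNA barcodes, reflects how well the two displayed proteins bind. The ratio of observed to expected reads was calibrated, replicate by replicate, on BCL2-family standards whose Kd was known from biolayer interferometry. Mating was done six times.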

Each scFv is VH, a (GGGGS)3 linker, VL, as in the parent Ab-14, and differs from it in the CDRs of the light chain only.
VH: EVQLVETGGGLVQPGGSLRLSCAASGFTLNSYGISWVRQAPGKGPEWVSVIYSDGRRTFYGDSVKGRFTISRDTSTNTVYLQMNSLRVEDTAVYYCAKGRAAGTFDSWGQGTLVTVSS
VL: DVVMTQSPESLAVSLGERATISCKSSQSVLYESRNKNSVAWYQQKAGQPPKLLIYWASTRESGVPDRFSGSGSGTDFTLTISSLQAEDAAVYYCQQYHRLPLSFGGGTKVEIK

Sequences are complete VL domains. The read-out is the apparent dissociation constant on a log10 scale (nM): the lower, the stronger. Averages over replicates are reported, and they cover detected replicates only. In the paper, a design with two or fewer of six values counts as a poor binder. The parent sequence was in this pool as ten entries: three were never detected, three once, and four in most replicates, with averages from 0.34 to 2.37. Three control strains display no target. For all light chain designs, 4% of the pairings with them gave a signal, with a median of 2.64 and one signal in twenty below 1.59, so weak values seen in few replicates may be background. The range of this assay differs from that of the first round, and the authors advise against merging the two.

| VL | group | mean log10 Kd (nM) | seen in |
|---|---|---|---|
| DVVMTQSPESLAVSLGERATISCMVTQMAMTGMMSKRSVAWYQQKAGQPPKLLIYNATMREYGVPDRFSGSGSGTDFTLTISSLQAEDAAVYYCQQYDRLPLIFGGGTKVEIK | En_Gen | 0.93 | 6 of 6 |
| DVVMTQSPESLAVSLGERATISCKIGMTLNTLMHTKNNVAWYQQKAGQPPKLLIYDLVTREQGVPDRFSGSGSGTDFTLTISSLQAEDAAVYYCQQYHRLPLSFGGGTKVEIK | En_Gen | 0.49 | 6 of 6 |
| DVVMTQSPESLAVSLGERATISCKSSQSVLYESRNKNSVAWYQQKAGQPPKLLIYGASTRESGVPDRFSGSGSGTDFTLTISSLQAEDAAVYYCQQYWRLPLSFGGGTKVEIK | Ctrl | 0.64 | 6 of 6 |
| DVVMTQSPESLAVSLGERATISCNLSMELEDMGVKTHSIAWYQQKAGQPPKLLIYEEQLPEYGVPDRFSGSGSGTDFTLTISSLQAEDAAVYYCQQYMRLPLMFGGGTKVEIK | En_Gibbs | 1.89 | 6 of 6 |
| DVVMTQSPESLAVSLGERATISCHMSQVTMYGMWMRNSVAWYQQKAGQPPKLLIYQTSTREAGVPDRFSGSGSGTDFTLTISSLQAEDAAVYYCQQYDRLPLSFGGGTKVEIK | En_HC | 0.69 | 6 of 6 |
| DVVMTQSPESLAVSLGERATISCKLPQSMLYESRNKNSVAWYQQKAGQPPKLLIYEASTRESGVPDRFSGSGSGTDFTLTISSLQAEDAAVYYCQQYHRLPLSFGGGTKVEIK | GP_Gen | -0.47 | 6 of 6 |
| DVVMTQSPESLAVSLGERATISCKAVQSWLYESRNKNSVAWYQQKAGQPPKLLIYGASTRESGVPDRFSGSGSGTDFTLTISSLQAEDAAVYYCQQYHRLPLIFGGGTKVEIK | GP_HC | 0.49 | 6 of 6 |
| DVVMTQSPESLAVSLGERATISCHINTLDVGVSDHYNAVAWYQQKAGQPPKLLIYEQRIAGIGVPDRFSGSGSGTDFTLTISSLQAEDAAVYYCQQYFRLPLSFGGGTKVEIK | En_Gibbs | 0.97 | 6 of 6 |
| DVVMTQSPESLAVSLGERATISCKASPSWLYEDRVKNSVAWYQQKAGQPPKLLIYGASTRESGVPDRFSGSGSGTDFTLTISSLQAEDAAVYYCQQYHRLPLSFGGGTKVEIK | GP_HC | 0.10 | 6 of 6 |
| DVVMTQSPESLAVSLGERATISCKFMYSLEYQMHEQNNIAWYQQKAGQPPKLLIYHGNIKTVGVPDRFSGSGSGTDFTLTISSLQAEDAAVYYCQQYFRLPIYFGGGTKVEIK | En_Gibbs | 0.27 | 6 of 6 |
| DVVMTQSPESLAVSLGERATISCHISYSMQHLSKNKNSVAWYQQKAGQPPKLLIYNQQTREEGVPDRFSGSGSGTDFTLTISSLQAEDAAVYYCQQYHRLPLSFGGGTKVEIK | En_HC | 0.17 | 6 of 6 |
| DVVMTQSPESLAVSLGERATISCKFSQSVLYESRTKNSVAWYQQKAGQPPKLLIYDASTRESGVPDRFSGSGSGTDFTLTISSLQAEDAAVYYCQQYHQLPLSFGGGTKVEIK | GP_HC | 0.39 | 6 of 6 |
| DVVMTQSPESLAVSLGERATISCMISQVLNTLTKEGNNVAWYQQKAGQPPKLLIYDLAERERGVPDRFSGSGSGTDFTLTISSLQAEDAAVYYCQQYFRLPLSFGGGTKVEIK | En_Gen | 1.87 | 6 of 6 |
| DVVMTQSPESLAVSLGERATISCKSDQSVLMESRQTNSVAWYQQKAGQPPKLLIYWASTRESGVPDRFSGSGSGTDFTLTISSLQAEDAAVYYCQQYHRLPLSFGGGTKVEIK | Ctrl | 2.22 | 5 of 6 |
| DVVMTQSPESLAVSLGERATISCKCYQSQDYESRNKNAVAWYQQKAGQPPKLLIYNASQREQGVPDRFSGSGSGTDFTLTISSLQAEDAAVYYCQQYHRLPLSFGGGTKVEIK | GP_Gibbs | -0.09 | 6 of 6 |
| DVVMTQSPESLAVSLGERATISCHITMGMYVKGRHTSNIAWYQQKAGQPPKLLIYQAETRAKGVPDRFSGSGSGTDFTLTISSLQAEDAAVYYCQQYDRLPLIFGGGTKVEIK | En_Gen | 0.95 | 6 of 6 |
| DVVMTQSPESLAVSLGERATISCKSSQSVLYESRNKNSVAWYQQKAGQPPKLLIYGASQRESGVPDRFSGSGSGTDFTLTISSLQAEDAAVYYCQQYHRLTLSFGGGTKVEIK | GP_HC | -0.21 | 6 of 6 |
| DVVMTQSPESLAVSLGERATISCKLSQAWWYESRNKWSVAWYQQKAGQPPKLLIYNASLREQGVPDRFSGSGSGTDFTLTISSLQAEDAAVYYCQQYHRLPLSFGGGTKVEIK | GP_Gibbs | 0.03 | 6 of 6 |
| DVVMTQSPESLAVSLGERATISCKSSQSVTYESRNKNSVAWYQQKAGQPPKLLIYSASKRESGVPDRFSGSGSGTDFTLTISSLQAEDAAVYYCQQYHRLPLSFGGGTKVEIK | Ctrl | 1.43 | 6 of 6 |
| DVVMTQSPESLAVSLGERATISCKISQSELYMSRNANSVAWYQQKAGQPPKLLIYNASTRMSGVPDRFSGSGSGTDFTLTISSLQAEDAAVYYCQQYHRLPLSFGGGTKVEIK | GP_Gibbs | -0.09 | 6 of 6 |

Excerpt, the final 3 entries:

| VL | group | mean log10 Kd (nM) | seen in |
|---|---|---|---|
| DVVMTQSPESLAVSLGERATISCKLSQAWWYESRNKWSVAWYQQKAGQPPKLLIYNASLREQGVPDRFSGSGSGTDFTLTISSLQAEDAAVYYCQQYHRLPLSFGGGTKVEIK | GP_Gibbs | 0.03 | 6 of 6 |
| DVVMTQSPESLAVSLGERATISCKSSQSVTYESRNKNSVAWYQQKAGQPPKLLIYSASKRESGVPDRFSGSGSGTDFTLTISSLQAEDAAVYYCQQYHRLPLSFGGGTKVEIK | Ctrl | 1.43 | 6 of 6 |
| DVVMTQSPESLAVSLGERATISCKISQSELYMSRNANSVAWYQQKAGQPPKLLIYNASTRMSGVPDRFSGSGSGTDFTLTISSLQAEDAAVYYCQQYHRLPLSFGGGTKVEIK | GP_Gibbs | -0.09 | 6 of 6 |